Results as given in patent US9278954B2, “Pyrrolidine derivatives, pharmaceutical compositions and uses thereof” (Boehringer Ingelheim International GmbH, priority 2013, dated 2016).

Amino acid sequences for entries named in this document (tags omitted). Residues count along the entry.
UniProt O00763, 129-2458 limits assumed: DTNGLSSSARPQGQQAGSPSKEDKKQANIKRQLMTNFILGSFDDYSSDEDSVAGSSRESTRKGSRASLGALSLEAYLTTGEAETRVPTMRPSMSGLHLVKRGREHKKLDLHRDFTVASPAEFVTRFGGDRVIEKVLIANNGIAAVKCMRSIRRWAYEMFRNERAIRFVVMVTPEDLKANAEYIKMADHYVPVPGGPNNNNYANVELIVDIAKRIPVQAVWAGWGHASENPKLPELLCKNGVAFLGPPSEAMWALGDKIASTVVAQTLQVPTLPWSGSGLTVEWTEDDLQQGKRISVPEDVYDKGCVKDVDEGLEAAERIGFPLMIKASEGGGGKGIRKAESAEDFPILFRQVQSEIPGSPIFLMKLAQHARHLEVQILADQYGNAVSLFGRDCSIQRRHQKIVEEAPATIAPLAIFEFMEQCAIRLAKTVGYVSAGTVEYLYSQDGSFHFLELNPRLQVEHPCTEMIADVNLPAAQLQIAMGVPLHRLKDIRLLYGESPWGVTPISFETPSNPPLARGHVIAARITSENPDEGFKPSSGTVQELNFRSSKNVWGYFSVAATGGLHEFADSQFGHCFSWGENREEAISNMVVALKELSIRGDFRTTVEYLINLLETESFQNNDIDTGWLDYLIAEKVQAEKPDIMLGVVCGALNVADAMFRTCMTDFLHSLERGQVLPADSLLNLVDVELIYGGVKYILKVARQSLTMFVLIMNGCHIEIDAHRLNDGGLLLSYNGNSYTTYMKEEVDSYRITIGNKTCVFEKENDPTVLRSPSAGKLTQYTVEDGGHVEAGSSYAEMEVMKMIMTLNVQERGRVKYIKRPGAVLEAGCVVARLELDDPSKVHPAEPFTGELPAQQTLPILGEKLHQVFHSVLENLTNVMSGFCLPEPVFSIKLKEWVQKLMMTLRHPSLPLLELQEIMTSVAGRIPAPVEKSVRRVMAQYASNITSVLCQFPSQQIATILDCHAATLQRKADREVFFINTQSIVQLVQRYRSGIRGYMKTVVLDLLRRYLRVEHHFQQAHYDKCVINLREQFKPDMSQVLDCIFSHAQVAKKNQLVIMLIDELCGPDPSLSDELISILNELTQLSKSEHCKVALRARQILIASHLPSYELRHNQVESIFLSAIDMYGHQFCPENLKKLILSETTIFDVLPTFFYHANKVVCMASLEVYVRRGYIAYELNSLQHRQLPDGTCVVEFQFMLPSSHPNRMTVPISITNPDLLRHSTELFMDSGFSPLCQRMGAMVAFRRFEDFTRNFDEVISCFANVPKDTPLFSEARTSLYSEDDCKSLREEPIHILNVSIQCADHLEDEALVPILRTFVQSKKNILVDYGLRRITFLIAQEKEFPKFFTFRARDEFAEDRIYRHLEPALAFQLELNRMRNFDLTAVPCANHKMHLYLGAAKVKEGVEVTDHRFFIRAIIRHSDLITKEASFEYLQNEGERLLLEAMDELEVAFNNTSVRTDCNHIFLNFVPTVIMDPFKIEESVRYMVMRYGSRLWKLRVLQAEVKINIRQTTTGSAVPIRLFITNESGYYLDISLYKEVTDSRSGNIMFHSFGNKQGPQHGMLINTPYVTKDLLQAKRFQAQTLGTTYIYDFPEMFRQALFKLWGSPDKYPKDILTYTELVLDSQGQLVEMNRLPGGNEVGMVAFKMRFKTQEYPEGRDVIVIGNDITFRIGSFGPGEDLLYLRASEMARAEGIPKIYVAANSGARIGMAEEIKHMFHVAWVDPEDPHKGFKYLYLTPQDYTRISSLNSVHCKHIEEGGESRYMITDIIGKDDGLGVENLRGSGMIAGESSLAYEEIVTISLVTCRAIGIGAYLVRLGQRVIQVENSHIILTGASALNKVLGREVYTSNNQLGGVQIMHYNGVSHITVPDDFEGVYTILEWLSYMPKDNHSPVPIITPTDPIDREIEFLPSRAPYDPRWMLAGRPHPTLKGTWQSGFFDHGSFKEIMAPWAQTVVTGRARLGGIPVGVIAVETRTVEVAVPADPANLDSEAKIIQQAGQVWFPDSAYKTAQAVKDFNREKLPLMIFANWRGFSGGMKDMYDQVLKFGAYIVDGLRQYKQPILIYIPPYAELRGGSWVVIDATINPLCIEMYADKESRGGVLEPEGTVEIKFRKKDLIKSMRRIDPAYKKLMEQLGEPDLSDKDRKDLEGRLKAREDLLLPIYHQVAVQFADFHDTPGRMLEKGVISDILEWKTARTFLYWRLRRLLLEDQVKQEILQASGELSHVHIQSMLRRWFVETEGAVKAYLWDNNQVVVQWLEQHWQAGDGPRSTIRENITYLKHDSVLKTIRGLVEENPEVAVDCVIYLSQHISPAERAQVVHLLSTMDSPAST

Molecular target: human ACC2 (Homo sapiens (Human), UniProt O00763)
Experiment: ACC2 assay (spectrophotometric 384 well assay, NADH-linked kinetic method)
Format: biochemical
Settings: hACC2 construct lacking the 128 N-terminal amino acids; 25° C., 340 nm over 15 minutes

C=CCNC(=O)C(C)c1ccc(O[C@@H]2CCN(c3nc(N(C)C)ncc3F)C2)cc1 (stereo partly shown)
IC50: 0.62 µM
